Measurements: PubChem BioAssay AID720700 (The Scripps Research Institute Molecular Screening Center, 2013)
The entries are a selection whose mix differs from that of the whole data set. Active and inactive are the calls of the source. Rule as the data show it: active = inhibition above about 9.5%; inactive = the rest.

Amino acid sequences for entries named in this document (tags omitted).
UniProt P19174, whole entry: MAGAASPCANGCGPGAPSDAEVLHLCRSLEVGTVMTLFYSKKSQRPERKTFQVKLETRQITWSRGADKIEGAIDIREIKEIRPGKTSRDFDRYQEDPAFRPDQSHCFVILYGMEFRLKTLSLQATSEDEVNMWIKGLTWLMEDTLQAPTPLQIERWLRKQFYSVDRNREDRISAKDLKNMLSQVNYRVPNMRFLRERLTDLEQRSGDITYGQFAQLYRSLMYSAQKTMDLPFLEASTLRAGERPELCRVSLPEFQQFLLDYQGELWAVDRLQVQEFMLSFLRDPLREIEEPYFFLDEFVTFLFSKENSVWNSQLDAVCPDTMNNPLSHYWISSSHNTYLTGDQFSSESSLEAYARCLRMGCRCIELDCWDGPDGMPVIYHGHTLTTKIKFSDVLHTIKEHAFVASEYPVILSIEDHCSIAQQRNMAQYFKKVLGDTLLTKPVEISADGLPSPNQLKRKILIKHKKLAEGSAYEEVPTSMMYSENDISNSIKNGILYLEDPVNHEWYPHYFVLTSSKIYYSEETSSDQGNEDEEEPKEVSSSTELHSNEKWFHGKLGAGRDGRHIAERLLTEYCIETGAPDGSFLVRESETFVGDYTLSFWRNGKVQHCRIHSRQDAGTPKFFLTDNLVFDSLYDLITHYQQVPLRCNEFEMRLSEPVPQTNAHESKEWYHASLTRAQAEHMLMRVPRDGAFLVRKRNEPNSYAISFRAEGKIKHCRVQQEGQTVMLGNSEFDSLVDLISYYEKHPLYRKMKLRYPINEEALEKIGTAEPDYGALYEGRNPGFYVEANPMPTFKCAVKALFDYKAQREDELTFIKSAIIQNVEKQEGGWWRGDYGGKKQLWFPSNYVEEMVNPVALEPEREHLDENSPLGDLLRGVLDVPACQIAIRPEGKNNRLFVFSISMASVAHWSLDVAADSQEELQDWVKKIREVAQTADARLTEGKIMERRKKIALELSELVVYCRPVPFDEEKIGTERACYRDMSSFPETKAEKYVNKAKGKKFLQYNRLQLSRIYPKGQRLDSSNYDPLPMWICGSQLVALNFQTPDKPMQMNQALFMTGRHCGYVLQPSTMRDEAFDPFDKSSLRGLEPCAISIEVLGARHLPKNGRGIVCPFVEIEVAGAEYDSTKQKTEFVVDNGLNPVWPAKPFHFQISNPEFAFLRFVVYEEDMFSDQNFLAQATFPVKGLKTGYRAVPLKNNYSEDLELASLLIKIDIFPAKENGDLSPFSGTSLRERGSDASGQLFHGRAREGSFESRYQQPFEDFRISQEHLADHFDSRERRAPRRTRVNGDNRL

The molecules below were run against 1-phosphatidylinositol 4,5-bisphosphate phosphodiesterase gamma-1 (Homo sapiens) (UniProt P19174) (assay: PLC-gamma1 enzyme inhibitors, primary screen, biochemical, fluorescence, purified enzyme (AID 720700)). Conditions: purified PLC-gamma1, fluorogenic substrate, at 12.2 µM, stronger effect = higher value.
With `COc1ccccc1OP(C)(=O)Nc1ccccc1Br` (stereo not drawn) the inhibition was inactive: 2.68%. `CC(C)(C)c1ccc(OP(C)(=O)O)cc1` was tested, and the inhibition was inactive: 3.42%. `CP(=O)(Nc1ccc(Cl)cc1)Oc1ccc(F)cc1` (stereo not drawn) was tested, and the inhibition was inactive: -5.64%. In the case of `CN(C)C(=O)c1c([N+](=O)[O-])cc([N+](=O)[O-])cc1[N+](=O)[O-]`, the inhibition is reported as inactive: -0.61%. With `CCN(CC)CC(O)COC(=O)C(O)(c1ccccc1)C1CCCCC1` (stereo not drawn) the inhibition was inactive: 0.36%. For `COc1ccc(OP(C)(=O)Nc2ccc(Br)cc2)cc1` (stereo not drawn), the inhibition was inactive: 0.29%. In the case of `COc1ccccc1OP(C)(=O)Nc1c(C)n(C)n(-c2ccccc2)c1=O` (stereo not drawn), the inhibition is reported as inactive: -1.44%. For `O=C(OCCCN1CCCC1)C(O)(c1ccccc1)C1CCCCC1` (stereo not drawn), the inhibition was inactive: -1.86%. With `CP(=O)(Oc1ccccc1)N1CCOC1=O` (stereo not drawn) the inhibition was inactive: 0.37%. With `CCc1ccc(OP(C)(=O)Nc2cccnc2)cc1` (stereo not drawn) the inhibition was inactive: -1.03%. In the case of `Nc1ccc2c(ccc3cccnc32)n1.O=[N+]([O-])c1cc([N+](=O)[O-])c(O)c([N+](=O)[O-])c1`, the inhibition is reported as inactive: -180%. `CCOC(=O)c1ccc(NP(C)(=O)Oc2ccc(Cl)cc2)cc1` (stereo not drawn) was tested, and the inhibition was inactive: 3.41%. In the case of `CP(=O)(OC12CC3CC(CC(C3)C1)C2)OC12CC3CC(CC(C3)C1)C2`, the inhibition is reported as inactive: 1.05%. With `CP(=O)(Nc1ccc(Cl)cc1Cl)Oc1ccccc1` (stereo not drawn) the inhibition was inactive: -2.04%. For `CCCCCCCCCCCCCCCC1C[N+](C)(C)CCOP(C)(=O)O1` (stereo not drawn), the inhibition was inactive: 0.88%. With `CP(=O)(OCCOc1ccccc1)OCCOc1ccccc1` the inhibition was inactive: 5.11%. With `O=C1C(O)=C([N+](=O)[O-])C(=O)C(O)=C1[N+](=O)[O-]` the inhibition was inactive: 6.61%. `Cc1cc(C)cc(OP(C)(=O)Nc2cccc(C(F)(F)F)c2)c1` (stereo not drawn) was tested, and the inhibition was inactive: 0.3%. With `COc1ccccc1OP(C)(=O)Nc1ccc(C)c(C)c1` (stereo not drawn) the inhibition was inactive: 0.71%. For `COc1ccc(OP(C)(=O)Nc2ccccc2Br)cc1` (stereo not drawn), the inhibition was inactive: -2.97%. `Cc1c(NP(C)(=O)Oc2ccc(C(C)C)cc2)c(=O)n(-c2ccccc2)n1C` (stereo not drawn) was tested, and the inhibition was inactive: -2.18%. `O=[N+]([O-])c1cc([N+](=O)[O-])c(Nc2ccccn2)c([N+](=O)[O-])c1` was tested, and the inhibition was inactive: 3.72%. For `CP(=O)(Nc1ccccn1)Oc1ccccc1` (stereo not drawn), the inhibition was inactive: -0.41%. In the case of `COc1ccccc1OP(C)(=O)Nc1ccc(C)cc1C` (stereo not drawn), the inhibition is reported as inactive: -0.47%. With `CCc1ccc(OP(C)(=O)O)cc1` the inhibition was inactive: 1.25%. With `COc1ccccc1OP(C)(=O)Nc1ccc(Br)cc1` (stereo not drawn) the inhibition was inactive: 2.11%. For `COc1ccc(OP(C)(=O)Nc2ccccn2)cc1` (stereo not drawn), the inhibition was inactive: -0.36%. With `CN(C)CCOC(=O)C(O)(c1ccccc1)C1CCCC1` (stereo not drawn) the inhibition was inactive: 2.43%.
